{"sequences": {"note": "Protein sequences, listed by entry. Tags and fused reporters are not part of them.", "UniProt O35678, whole entry": "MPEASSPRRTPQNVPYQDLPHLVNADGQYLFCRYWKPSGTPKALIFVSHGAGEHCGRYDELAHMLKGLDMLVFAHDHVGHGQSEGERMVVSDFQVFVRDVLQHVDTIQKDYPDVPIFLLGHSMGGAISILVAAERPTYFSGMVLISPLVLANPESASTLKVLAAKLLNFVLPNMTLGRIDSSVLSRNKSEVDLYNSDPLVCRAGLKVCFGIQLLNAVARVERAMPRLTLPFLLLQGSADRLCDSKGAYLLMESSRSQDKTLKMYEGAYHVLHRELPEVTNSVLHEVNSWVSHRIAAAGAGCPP"}, "source": "paper PMC2828288", "about": "(Journal of medicinal chemistry, 2010)", "target": "MAGL (Mus musculus, UniProt O35678)", "test": "Competitive ABPP", "format": "biochemical", "data": [{"smiles": "O=C(Oc1ccc([N+](=O)[O-])cc1)N1CCC(C(O)(c2ccc3c(c2)OCO3)c2ccc3c(c2)OCO3)CC1", "note": "[Compound 1, 4-nitrophenyl 4-(dibenzo[d][1,3]dioxol-5-yl(hydroxy)methyl)piperidine-1-carboxylate]", "values": [{"measurement": "improvement in MAGL potency compared with 23", "value": 7, "unit": "fold"}]}]}
